According to PubChem BioAssay AID2280 (The Scripps Research Institute Molecular Screening Center, 2010):
This is a selection; strong and weak results do not stand in their true shares. Activity calls are given as the source filed them.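 How the source made its calls: active means percent inhibition above a per-plate cutoff, the plate mean of test compounds plus 3 SD (cut at about 30% in these data); inactive means the rest.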

By UniProt entry, the sequences of proteins in these tests, tags left out.
UniProt Q17339, whole entry: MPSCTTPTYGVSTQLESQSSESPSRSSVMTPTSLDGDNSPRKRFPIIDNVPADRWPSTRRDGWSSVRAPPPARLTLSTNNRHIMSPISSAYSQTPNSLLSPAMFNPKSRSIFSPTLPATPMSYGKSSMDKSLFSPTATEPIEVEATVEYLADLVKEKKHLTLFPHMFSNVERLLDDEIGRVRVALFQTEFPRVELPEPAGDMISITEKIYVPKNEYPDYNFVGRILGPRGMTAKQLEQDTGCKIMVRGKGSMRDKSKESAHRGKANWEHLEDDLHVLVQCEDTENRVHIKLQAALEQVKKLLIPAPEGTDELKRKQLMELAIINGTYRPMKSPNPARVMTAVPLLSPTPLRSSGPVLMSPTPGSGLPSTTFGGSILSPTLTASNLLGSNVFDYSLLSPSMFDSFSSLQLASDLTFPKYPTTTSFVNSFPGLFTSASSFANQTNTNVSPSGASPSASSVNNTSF

Target: Female germline-specific tumor suppressor gld-1 (Caenorhabditis elegans) (UniProt Q17339)
Assay: small molecules blocking C. elegans GLD-1 RNA recognition – biochemical, fluorescence polarization, primary screen (AID 2280);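 further: 0% = DMSO wells with GLD-1 and probe and 100% = wells lacking GLD-1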
Conditions: purified GLD-1 + fluorescein TGE RNA, at 5.96 µM, hits give high values

Row | SMILES | inhibition
1 | COc1ccccc1OP(C)(=O)Nc1ccc(C)cc1 (stereo unspecified) | inactive: 10.4%
